{
  "source": "patent EP0072352B1",
  "about": "“Benzazepin-2-ones, process for their preparation, pharmaceutical preparations containing these compounds and the compounds for therapeutical use” (CIBA-GEIGY AG, priority 1981, dated 1983)",
  "key": {"[1]": {"test_system": "durch Angiotensin I (AI) hervorgerufene Blutdrucksteigerung", "assay": "Inhibition of the angiotensin I (AI) induced blood pressure rise after intravenous administration of the test compound", "conditions": "i.v. Dosis 1.0 mg/kg; rat; mean inhibition within 30 min after administration; tested form: maleate", "excerpt": "Die Verbindungen der Erfindung zeigen nach intravenöser oder oraler Verabreichung eine hemmende Wirkung gegen die durch Angiotensin I hervorgerufene Blutdrucksteigerung auch an normotensiven Ratten. Das Angiotensin 1 wird durch das genannte Umwandlungsenzym zu der stark blutdrucksteigernden Substanz Angiotensin II hydrolysiert. Die Hemmung des genannten Enzyms blockiert die Bildung von Angiotensin II aus Angiotensin I. In dieser Weise wird die durch Angiotensin I provozierte Blutdrucksteigerung abgeschwächt.\nDer entsprechende in-vivo-Test mit den intravenös verabreichten Verbindungen wird mit männlichen normotensiven Ratten, welche mit dem Natriumsalz der 5-Äthyl-5-(1-methylpropyl)-2-thiobarbitursäure narkotisiert sind, durchgeführt. Eine femorale Arterie und eine Wadenvene werden mit je einer Hohlnadel für die direkte Messung des Blutdrucks und für die intravenöse Verabreichung des Angiotensins I und einer erfindungsgemäßen Verbindung versehen. Nach der Stabilisierung des basalen Blutdrucks wird die Druckänderung nach drei, in 5-minütigen Intervallen, i. v. durchgeführten Reizungen mit 333 ng/kg Angiotensin I bestimmt. Solche Druckänderungen werden wieder nach 5,10,15, 30 und 60 Minuten nach intravenöser Verabreichung der zu prüfenden Verbindung bestimmt. Die letztgenannten Druckänderungen werden mit den Anfangswerten verglichen. […]"}, "[2]": {"target": "Angiotensin-umwandelnde Enzym (ACE) (Oryctolagus cuniculus, UniProt P12822)", "assay": "In vitro ACE inhibition (ACEI), rabbit lung tissue preparation, hippuryl-histidyl-leucine substrate, method of Cheung and Cushman", "conditions": "read-out: In vitro ACEI IC50, 30 min incubation at 37°, tested form: maleate"}},
  "data": [
    {"smiles": "CCOC(=O)CN1C(=O)[C@@H](N[C@@H](CCc2ccccc2)C(=O)OCC)CCc2ccccc21", "note": "(relative stereo)", "values": [
      {"measurement": "% AI Hemmung", "setting": "[1]", "result": 80, "unit": "%"},
      {"measurement": "IC50", "setting": "[2]", "result": 10, "unit": "µM"}
    ]}
  ]
}
